From US9809582B2, “Aminoester derivatives” (CHIESI FARMACEUTICI S.p.A., priority 2015, dated 2017)

By UniProt entry, the sequences of proteins in these tests, tags left out. Chains listed by the source or under a name are the forms on record and can include a tag or linker. Residues count along the entry.
UniProt Q07343, 212-736 with tags or gaps limits assumed: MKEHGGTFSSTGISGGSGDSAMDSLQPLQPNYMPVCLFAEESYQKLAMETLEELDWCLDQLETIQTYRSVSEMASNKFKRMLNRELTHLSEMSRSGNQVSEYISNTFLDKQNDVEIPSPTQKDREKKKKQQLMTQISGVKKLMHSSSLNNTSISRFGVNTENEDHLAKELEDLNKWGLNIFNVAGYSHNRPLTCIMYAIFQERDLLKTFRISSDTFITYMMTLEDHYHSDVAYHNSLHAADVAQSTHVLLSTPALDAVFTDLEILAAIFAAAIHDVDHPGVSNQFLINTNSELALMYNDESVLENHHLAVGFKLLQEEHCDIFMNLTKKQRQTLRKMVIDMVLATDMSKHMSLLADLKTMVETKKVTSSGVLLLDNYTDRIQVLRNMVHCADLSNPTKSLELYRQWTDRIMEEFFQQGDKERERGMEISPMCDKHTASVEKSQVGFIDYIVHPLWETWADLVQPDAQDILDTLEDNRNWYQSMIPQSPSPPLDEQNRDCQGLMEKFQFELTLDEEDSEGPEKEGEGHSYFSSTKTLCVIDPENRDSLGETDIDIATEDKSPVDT
UniProt P20309, whole entry, looked up: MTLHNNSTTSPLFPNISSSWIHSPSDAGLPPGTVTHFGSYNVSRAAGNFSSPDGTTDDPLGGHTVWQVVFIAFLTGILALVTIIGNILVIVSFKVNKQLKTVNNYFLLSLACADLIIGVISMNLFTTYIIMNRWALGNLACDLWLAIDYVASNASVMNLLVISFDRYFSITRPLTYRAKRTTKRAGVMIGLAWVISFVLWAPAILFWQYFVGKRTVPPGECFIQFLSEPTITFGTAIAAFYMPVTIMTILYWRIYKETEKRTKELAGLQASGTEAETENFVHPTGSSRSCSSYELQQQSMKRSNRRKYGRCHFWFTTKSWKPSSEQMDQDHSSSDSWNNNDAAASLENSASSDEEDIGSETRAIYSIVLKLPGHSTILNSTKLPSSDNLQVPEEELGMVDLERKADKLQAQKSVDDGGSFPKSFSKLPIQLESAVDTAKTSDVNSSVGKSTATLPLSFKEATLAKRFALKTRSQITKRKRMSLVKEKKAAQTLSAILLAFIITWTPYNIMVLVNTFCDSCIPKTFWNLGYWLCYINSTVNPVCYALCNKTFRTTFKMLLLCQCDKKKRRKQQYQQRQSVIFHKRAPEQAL

How the values were obtained:
[1] = target: Human recombinant PDE4B2 (Homo sapiens (Human), UniProt Q07343); test: PDE4B2 HTRF assay; assay type: biochemical; conditions: read-out: PDE4B2 IC50 Activity
[2] = target: Human M3 receptor (Homo sapiens (Human), UniProt P20309); test: M3 receptor radioligand binding assay; conditions: read-out: M3 IC50 Activity

Q: `COc1ccc([C@H](Cc2c(Cl)c[n+]([O-])cc2Cl)OC(=O)c2ccc(CNCC(O)(C(=O)O[C@H]3CN4CCC3CC4)c3cccs3)s2)cc1OC` (some centres unmarked) was tested. Which IC50 [1] did it give?
A: < 1 nM

Q: What about the IC50 [2] of the same compound?
A: 1 to 10 nM
